Earlier results as cited in patent US20170000761A1, “PROTECTING TISSUE AND MITIGATING INJURY FROM CHEMICAL EXPOSURE” (published 2017).

O=c1c(-c2ccc(O)cc2)coc2cc(O)cc(O)c12
Solubility in several pharmaceutically acceptable solvents: low to virtually no solubility
